# Values of other authors, collected in patent publication US8975279B2, “Amine salts of laquinimod” (Teva Pharmaceutical Industries, Ltd., priority 2012, dated 2015).
# Counter-ions that a name gives are not always drawn.
# Details: pH not given; cited from earlier work
smiles,measurement,value
Oc1cc(Cl)ccc1Oc1ccc(Cl)cc1Cl [triclosan sodium salt],solubility,5950 µg/mL
